Results: patent US7517885B2, “Substituted [4-(4-phenyl-piperazin-1-yl)-cyclohexyl]-urea compounds” (Janssen Pharmaceutica N.V., priority 2005, dated 2009)

Chains of the proteins cited; added tags and fusions are not shown.
UniProt P35368, whole entry: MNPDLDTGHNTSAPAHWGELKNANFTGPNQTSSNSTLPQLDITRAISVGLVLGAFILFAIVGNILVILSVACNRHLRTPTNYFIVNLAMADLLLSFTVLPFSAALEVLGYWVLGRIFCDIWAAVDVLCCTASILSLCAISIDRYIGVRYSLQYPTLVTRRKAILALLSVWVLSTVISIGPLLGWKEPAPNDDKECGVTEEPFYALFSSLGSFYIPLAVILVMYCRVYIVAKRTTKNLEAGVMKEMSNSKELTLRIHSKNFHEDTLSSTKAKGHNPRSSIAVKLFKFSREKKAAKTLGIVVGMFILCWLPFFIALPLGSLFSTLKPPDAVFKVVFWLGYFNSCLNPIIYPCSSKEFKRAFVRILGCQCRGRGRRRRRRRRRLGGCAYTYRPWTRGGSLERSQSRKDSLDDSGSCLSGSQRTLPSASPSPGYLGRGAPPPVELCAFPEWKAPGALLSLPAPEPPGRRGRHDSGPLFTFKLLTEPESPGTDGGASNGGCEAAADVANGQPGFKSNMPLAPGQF
UniProt P25100, whole entry: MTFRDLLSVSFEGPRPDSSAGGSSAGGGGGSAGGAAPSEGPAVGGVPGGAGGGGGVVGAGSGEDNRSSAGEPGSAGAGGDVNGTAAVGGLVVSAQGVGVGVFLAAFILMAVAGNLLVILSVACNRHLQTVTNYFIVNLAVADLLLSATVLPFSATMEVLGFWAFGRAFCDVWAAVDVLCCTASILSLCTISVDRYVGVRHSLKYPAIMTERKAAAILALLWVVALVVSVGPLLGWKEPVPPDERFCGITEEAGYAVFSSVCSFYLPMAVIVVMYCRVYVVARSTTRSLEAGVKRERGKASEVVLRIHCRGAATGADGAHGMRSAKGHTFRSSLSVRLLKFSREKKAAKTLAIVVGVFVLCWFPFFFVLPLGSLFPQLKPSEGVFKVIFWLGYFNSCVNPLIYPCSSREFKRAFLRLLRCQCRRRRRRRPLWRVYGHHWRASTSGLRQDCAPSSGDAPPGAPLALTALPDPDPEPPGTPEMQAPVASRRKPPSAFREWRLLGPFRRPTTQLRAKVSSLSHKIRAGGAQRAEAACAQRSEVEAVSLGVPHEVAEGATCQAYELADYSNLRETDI

What was measured:
[1] = target: T1, α1b-AR (Homo sapiens, UniProt P35368); assay: α1-Adrenergic Receptor Binding Assay (125I-HEAT radio-ligand), α1b subtype; details: membranes of COS-7 cells transfected with α1b subtype; 125I-HEAT 50 pM; rt 1 hr
T1 construct: expressed in transfected cells; host or cells: COS-7 cells (membranes)
Method: (§1) α1-Adrenergic Receptor Binding Assay
(§2) Preparation of COS Cell Membranes
(§3) Membranes were prepared from COS-7 cells (African Green monkey kidney SV40-transformed cells) that had been transfected with one of the three α1-AR subtypes (Genbank accession number for the α1a subtype: AF013261; Genbank accession number for the α1b subtype: NM000679; Genbank accession number for the α1d subtype: NM000678) using the following method: COS cells from ten 100 mm tissue culture plates were scraped into a 5 mL volume of TE (a mixture of 50 mM Tris-HCl, 5 mM EDTA, pH 7.4). The cell suspension was disrupted with a Brinkman Polytron (at a setting of 8) for 10 sec. The disrupted cells were centrifuged at 1000×g min at 4° C. Supernatants were centrifuged at 34,500×g for 20 min at 4° C. The membrane pellets were suspended in a 2 mL volume of TNE (a mixture of 50 mM Tris-HCl, 5 mM EDTA and 150 mM NaCl at pH 7.4). An aliquot of the membrane suspension was stored at −70° C. until use. The protein concentration was determined using the BioRad “DC” protein assay kit following membrane solubilization with Triton X-100.
(§4) Radio-Ligand Binding Assay
(§5) Triplicate determinations of radio-ligand binding in the presence of increasing concentrations of testing compound were made. The reagents were added to 96-well polypropylene plate wells. […] The plate was incubated at rt for 1 hr. The contents of the wells were filtered through a glass filter (type C) (GF/C) membrane Unifilter plate (Packard Instruments) using the Packard Filtermate cell harvester. The filter plates were dried in a vacuum oven for 30 min at 40° C. 25 μL Microscint 20 liquid scintillation fluid (Packard Instruments) was added to each well. The radioactive content was analyzed in the TopCount microplate scintillation counter (Packard Instruments).

[2] = target: T2, α1d-AR (Homo sapiens, UniProt P25100); assay: α1-Adrenergic Receptor Binding Assay (125I-HEAT radio-ligand), α1d subtype; details: membranes of COS-7 cells transfected with α1d subtype; 125I-HEAT 50 pM; rt 1 hr
T2 construct: expressed in transfected cells; host or cells: COS-7 cells (membranes)
Method: as §1, §2, §3, §4, §5

pKi [1] | pKi [2] | SMILES
6.67 |  | COc1ccc(NC(=O)N[C@H]2CC[C@H](N3CCN(c4ccccc4OC(C)C)CC3)CC2)c(OC)c1 [Cpd 4, 1-(2,4-dimethoxy-phenyl)-r-3-{t-4-[4-(2-isopropoxy-phenyl)-piperazin-1-yl]-cyclohexyl}-urea]
 | 7.04 | CC(C)Oc1ccccc1N1CCN([C@H]2CC[C@@H](NC(=O)Nc3c(F)cccc3F)CC2)CC1 [Cpd 26, 1-(2,6-difluoro-phenyl)-r-3-{c-4-[4-(2-isopropoxy-phenyl)-piperazin-1-yl]-cyclohexyl}-urea]
 | 8.32 | CC(C)Oc1ccccc1N1CCN([C@H]2CC[C@H](NC(=O)Nc3c(F)cccc3F)CC2)CC1 [Cpd 27, 1-(2,6-difluoro-phenyl)-r-3-{t-4-[4-(2-isopropoxy-phenyl)-piperazin-1-yl]-cyclohexyl}-urea]
 | 7.58 | CC(C)Oc1ccccc1N1CCN([C@H]2CC[C@@H](NC(=O)Nc3ccc(F)cc3F)CC2)CC1 [Cpd 22, 1-(2,4-difluoro-phenyl)-r-3-{c-4-[4-(2-isopropoxy-phenyl)-piperazin-1-yl]-cyclohexyl}-urea]
 | 8.57 | CC(C)Oc1ccccc1N1CCN([C@H]2CC[C@H](NC(=O)Nc3ccc(F)cc3F)CC2)CC1 [Cpd 23, 1-(2,4-difluoro-phenyl)-r-3-{t-4-[4-(2-isopropoxy-phenyl)-piperazin-1-yl]-cyclohexyl}-urea]
 | 7.53 | CC(C)Oc1ccccc1N1CCN([C@H]2CC[C@@H](NC(=O)Nc3cccc(Cl)c3)CC2)CC1 [Cpd 11, 1-(3-chloro-phenyl)-r-3-{c-4-[4-(2-isopropoxy-phenyl)-piperazin-1-yl]-cyclohexyl}-urea]
7.09 |  | COc1ccc(Cl)cc1NC(=O)N[C@H]1CC[C@H](N2CCN(c3ccccc3OC(C)C)CC2)CC1 [Cpd 19, 1-(5-chloro-2-methoxy-phenyl)-r-3-{t-4-[4-(2-isopropoxy-phenyl)-piperazin-1-yl]-cyclohexyl}-urea]
6.32 |  | COc1ccc(NC(=O)N[C@H]2CC[C@@H](N3CCN(c4ccccc4OC(C)C)CC3)CC2)c(OC)c1 [Cpd 3, 1-(2,4-dimethoxy-phenyl)-r-3-{c-4-[4-(2-isopropoxy-phenyl)-piperazin-1-yl]-cyclohexyl}-urea]
 | 8.06 | COc1ccccc1NC(=O)N[C@H]1CC[C@H](N2CCN(c3ccccc3OC(C)C)CC2)CC1 [Cpd 2, 1-{t-4-[4-(2-isopropoxy-phenyl)-piperazin-1-yl]-cyclohexyl}-r-3-(2-methoxy-phenyl)-urea]
7.15 |  | CC(C)Oc1ccccc1N1CCN([C@H]2CC[C@H](NC(=O)Nc3cccc(Cl)c3)CC2)CC1 [Cpd 12, 1-(3-chloro-phenyl)-r-3-{t-4-[4-(2-isopropoxy-phenyl)-piperazin-1-yl]-cyclohexyl}-urea]
 | 7.80 | CC(C)Oc1ccccc1N1CCN([C@H]2CC[C@@H](NC(=O)Nc3c(Cl)cccc3Cl)CC2)CC1 [Cpd 13, 1-(2,6-dichloro-phenyl)-r-3-{c-4-[4-(2-isopropoxy-phenyl)-piperazin-1-yl]-cyclohexyl}-urea]
7.30 |  | CC(C)Oc1ccccc1N1CCN([C@H]2CC[C@H](NC(=O)Nc3c(Cl)cccc3Cl)CC2)CC1 [Cpd 14, 1-(2,6-dichloro-phenyl)-r-3-{t-4-[4-(2-isopropoxy-phenyl)-piperazin-1-yl]-cyclohexyl}-urea]
 | 8.89 | CC(C)Oc1ccccc1N1CCN([C@H]2CC[C@H](NC(=O)Nc3ccc(F)c(F)c3)CC2)CC1 [Cpd 8, 1-(3,4-difluoro-phenyl)-r-3-{t-4-[4-(2-isopropoxy-phenyl)-piperazin-1-yl]-cyclohexyl}-urea]
 | 7.14 | COc1ccccc1NC(=O)N[C@H]1CC[C@@H](N2CCN(c3ccccc3OC(C)C)CC2)CC1 [Cpd 1, 1-{c-4-[4-(2-isopropoxy-phenyl)-piperazin-1-yl]-cyclohexyl}-r-3-(2-methoxy-phenyl)-urea]
6.68 |  | COc1ccc(Cl)cc1NC(=O)N[C@H]1CC[C@@H](N2CCN(c3ccccc3OC(C)C)CC2)CC1 [Cpd 18, 1-(5-chloro-2-methoxy-phenyl)-r-3-{c-4-[4-(2-isopropoxy-phenyl)-piperazin-1-yl]-cyclohexyl}-urea]

pKi: −log10 of the molar value.
